Data on one compound can be found in PMC11724075, “Small-molecule-induced ERBB4 activation to treat heart failure” (Nature Communications, 2025).

This test deals with mouse model of MI. In words: Mouse model of MI, histology: CSA, capillaries, interstitial fibrosis, scar size. The settings on record: MI experiment, male mice, MI/EF-1; MI experiment in female mice. The procedure: Twelve-week-old female and male Balb/cJ (Charles River, 000651) mice were randomized into either the ctrl or MI group. Mice in the MI group underwent surgical ligation of the LAD, while mice in the ctrl group underwent a sham procedure (n = 8 female mice, n = 10 male mice). Briefly, all mice received an injection of 0.1 mg/kg buprenorphine (Produlab Pharma) before induction of anesthesia with 8% sevoflurane (Zoetis). Anesthesia was maintained with 4.5% sevoflurane and mice were intubated and ventilated. An incision of 15 mm was made on the left side of the thorax and the thoracic cavity was opened at the third intercostal space using blunt forceps. […]
Hearts were fixed in 4% PFA, paraffin-embedded, and cut into 5-µm sections. Images were acquired with an Olympus BX43 microscope (Olympus Stream Motion Software) or a CELENA® S Digital Imaging System and analyzed with ImageJ 2.14.0 software. […] Cardiac total fibrosis was expressed as the ratio of positively stained fibrotic area (blue) to the total area and perivascular fibrosis as the ratio of fibrotic area to vascular lumen area. Scar size was determined by measuring the scar length over the total heart area. […] Quantification was performed by a person blinded to the treatment protocol.

The compound `O=C(NC1CC1)C(Sc1nc2ccccc2c(=O)n1C1CCCC1)c1ccccc1` (stereo not shown) [EF-1] came in with a cardiomyocyte cross-sectional area of 615.176 µm².
